The target of assay [1] is GST-tagged K-Ras G12V protein (Example 4) (UniProt P01116). As to the kind of experiment: FA, dye-labeled resynthesized peptide.
Assay [2] has the same target. As to the kind of experiment: FA.
For assay [3] the target is unchanged. As to the kind of experiment: FA, binding in solution.

In the case of “peptide 2, bicyclo(Phg-Arg-d-Asn-Pra-Ile-K-FNalR4-Dap)-K”, the Kd in assay [1] was 5.1 µM.

Consider “peptide 5, bicyclo(Ala-Phg-Arg-d-Asn-Pra-Ile-K-FNalR4-Dap)-K”, for which the Kd in assay [2] came out at 6.4 µM.

“peptide 6, bicyclo(Phg-Arg-d-Asn-Pra-Ile-Ala-K-FNalR4-Dap)-K” had a Kd in assay [2] of 5.6 µM.

Consider “peptide 7, bicyclo(Ala-Phg-Arg-d-Asn-Pra-Ile-Ala-K-FNalR4-Dap)-K”, for which, in assay [2], the Kd worked out at 1.8 µM.

Substance “peptide 9, bicyclo(d-Ala-Abu-Phg-Arg-d-Asn-Pra-Ile-Abu-K-FNalR4-Dap)-K” came in with a Kd in assay [3] of 2.5 µM.

In assay [3], “peptide 10, bicyclo(Phg-Ile-Phg-Arg-d-Asn-Pra-Ile-Abu-K-FNalR4-Dap)-K” had a Kd of 2.4 µM.

“peptide 11, bicyclo(Ala-d-Leu-Phg-Arg-d-Asn-Pra-Ile-Asp-K-FNalR4-Dap)-K” came in with a Kd in assay [3] of 1.1 µM.

With “peptide 14, bicyclo(d-Ala-Phg-Phg-Arg-d-Asn-Pra-Ile-d-Phe-K-FNalR4-Dap)-K”, the Kd in assay [3] was 4.9 µM.

The record behind these values is US20160115202A1 (OHIO STATE INNOVATION FOUNDATION, published 2016).
